The text below walks through data of patent US20090155270A1, “CASPASE INHIBITORS, […] 3 INHIBITORS, FOR THE TREATMENT OF INFLUENZA” (priority 2003, published 2009).

For this experiment, the system named is caspase activity (cleavage of the protein PARP). It is filed as cell-based.

With XIAP, the “inhibition of the caspase activity, measured by the reduced cleavage of the protein PARP” value was 40-50%.
